In ChEMBL document CHEMBL1149354, “A new series of pyridinyl-alkynes as antagonists of the metabotropic glutamate receptor 5 (mGluR5)” (Bioorg Med Chem Lett, 2006) one finds IC50 data, which are given here for one molecule.

Chains of the proteins cited; added tags and fusions are not shown.
UniProt P41594, whole entry: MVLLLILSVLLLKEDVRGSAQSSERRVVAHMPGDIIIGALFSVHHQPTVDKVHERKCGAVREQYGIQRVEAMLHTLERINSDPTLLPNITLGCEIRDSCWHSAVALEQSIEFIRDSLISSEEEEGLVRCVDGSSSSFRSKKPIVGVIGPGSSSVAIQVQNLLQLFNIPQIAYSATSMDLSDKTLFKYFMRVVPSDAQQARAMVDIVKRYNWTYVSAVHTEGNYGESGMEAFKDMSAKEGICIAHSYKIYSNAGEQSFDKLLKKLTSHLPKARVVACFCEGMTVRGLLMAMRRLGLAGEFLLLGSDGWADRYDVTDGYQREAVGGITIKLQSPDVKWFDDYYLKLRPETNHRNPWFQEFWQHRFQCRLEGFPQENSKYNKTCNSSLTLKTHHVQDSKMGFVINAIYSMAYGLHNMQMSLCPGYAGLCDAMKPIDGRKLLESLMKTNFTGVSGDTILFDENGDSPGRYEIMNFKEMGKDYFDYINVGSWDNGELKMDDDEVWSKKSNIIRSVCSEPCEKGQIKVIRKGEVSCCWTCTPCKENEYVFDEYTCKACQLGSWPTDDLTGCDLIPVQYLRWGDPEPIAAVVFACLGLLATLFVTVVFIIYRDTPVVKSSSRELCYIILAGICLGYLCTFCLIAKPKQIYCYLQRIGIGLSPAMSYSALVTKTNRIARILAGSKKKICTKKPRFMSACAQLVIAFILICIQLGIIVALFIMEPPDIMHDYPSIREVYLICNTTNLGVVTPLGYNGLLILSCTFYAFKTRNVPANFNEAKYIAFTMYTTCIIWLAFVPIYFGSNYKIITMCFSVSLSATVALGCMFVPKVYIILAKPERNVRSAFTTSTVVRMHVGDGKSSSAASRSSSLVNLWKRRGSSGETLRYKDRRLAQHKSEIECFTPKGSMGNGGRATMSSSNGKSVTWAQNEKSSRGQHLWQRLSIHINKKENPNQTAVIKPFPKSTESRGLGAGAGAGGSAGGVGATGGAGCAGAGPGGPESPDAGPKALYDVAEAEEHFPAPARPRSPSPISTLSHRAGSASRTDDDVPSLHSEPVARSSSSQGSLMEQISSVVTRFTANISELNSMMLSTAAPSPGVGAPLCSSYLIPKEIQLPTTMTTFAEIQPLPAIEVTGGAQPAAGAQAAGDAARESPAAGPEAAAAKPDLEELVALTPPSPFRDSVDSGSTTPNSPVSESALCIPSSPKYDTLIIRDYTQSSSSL

pIC50: −log10 of the molar value.

In the experiment the target is Metabotropic glutamate receptor 5 (Homo sapiens, UniProt P41594). In words: Activity at human mGluR5 assessed as effect on glutamate-induced calcium ion mobilization by FLIPR. In kind it is functional.

Turning to `Cc1nc(C#Cc2cccnc2)cs1`, the pIC50 (usually −log10 of the IC50, conventionally taken in molar units) is 7.11.
